# Test results as given in PubChem BioAssay AID2066 (NMMLSC, 2009).
# The entries are a selection whose mix differs from that of the whole data set. The source made the active and inactive calls.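 Rule for the calls: active = GFP response relative to DMSO above a set limit, near screen average plus 3 SD (cut at about 150% in these data); inconclusive = fewer than 70 cells counted for the yeast strain; inactive = the rest.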
# Test: yeast AGP1-GFP level changes, GLN3 branch – cell-based, multiplex flow cytometry, S. cerevisiae, MLPCN library, primary screen (AID 2066);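 note: median GFP channel fluorescence of the gated AGP1 strain per well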
# Conditions: 3 h, at 10 µM, active compounds read high, GFP as percent of DMSO wells
row,SMILES,GFP response vs DMSO
1,CCC(=O)N(c1ccccc1)C1(COC)CCN(CCc2cccs2)CC1,inactive: 102%
2,CCC(=O)N(c1ccccc1)C1(COC)CCN(CCn2nnn(CC)c2=O)CC1,inactive: 99.2%
